Reference: the NIST ThermoML archive (doi:10.1021/acs.jced.5b00662)
“And” between values parts separate entries of the source, which are not always exact repeats. Equal entries are not always repeated.

Key:
[1] = 101.33 kPa, Liquid; for speed of sound: Sing-around technique in a fixed-path interferometer; for mass density: Vibrating tube method; for viscosity: Concentric cylinders viscometry
[2] = refractive index (Na D-line) (dimensionless); conditions: 101.33 kPa, Liquid, Standard Abbe refractometry

OCCOCCOCCOCCO [tetraethylene glycol]
Conditions | mass density, [1] | refractive index, [2] | speed of sound, [1] [m/s] | viscosity, [1] [mPa·s]
283.15 K | 1132.1 kg/m3 | 1.46333 | 1647.6 | –
288.15 K | 1131.2 kg/m3 and 1128.1 kg/m3 | 1.46169 | 1630.6 | 79.71
293.15 K | 1127.1 kg/m3 and 1124.1 kg/m3 | 1.45999 | 1614.1 | 59.68
298.15 K | 1120.1 kg/m3 and 1123.1 kg/m3 | 1.45827 | 1597.9 | 45.86
303.15 K | 1116.1 kg/m3 and 1119.1 kg/m3 | 1.45661 | 1582 | 35.92
308.15 K | 1112.2 kg/m3 and 1115.1 kg/m3 | – | 1566.3 | 28.46
313.15 K | 1108.2 kg/m3 and 1111.1 kg/m3 | 1.45319 | 1550.6 | 23.16
318.15 K | 1107.2 kg/m3 | – | – | 19.08
323.15 K | 1100.2 kg/m3 and 1103.2 kg/m3 | 1.44976 | 1519.8 | 15.89
328.15 K | 1099.2 kg/m3 | – | – | 13.38
333.15 K | 1092.2 kg/m3 and 1095.3 kg/m3 | 1.44633 | 1489.4 | 11.37
338.15 K | 1091.3 kg/m3 | – | – | 9.784
343.15 K | 1087.3 kg/m3 and 1084.3 kg/m3 | 1.44288 | 1459.4 | 8.48
348.15 K | 1083.4 kg/m3 | – | – | 7.405
353.15 K | 1079.4 kg/m3 | 1.43947 | – | 6.491
358.15 K | 1075.3 kg/m3 | – | – | 5.762
363.15 K | 1071.3 kg/m3 | – | – | 5.127
368.15 K | 1067.3 kg/m3 | – | – | 4.585
373.15 K | 1063.2 kg/m3 | – | – | 4.116
